{
  "sequences": {"note": "Sequences of proteins named here, by UniProt entry; tags and fusion partners are left off. Residues count along the entry.", "UniProt Q00959, 23-1464": "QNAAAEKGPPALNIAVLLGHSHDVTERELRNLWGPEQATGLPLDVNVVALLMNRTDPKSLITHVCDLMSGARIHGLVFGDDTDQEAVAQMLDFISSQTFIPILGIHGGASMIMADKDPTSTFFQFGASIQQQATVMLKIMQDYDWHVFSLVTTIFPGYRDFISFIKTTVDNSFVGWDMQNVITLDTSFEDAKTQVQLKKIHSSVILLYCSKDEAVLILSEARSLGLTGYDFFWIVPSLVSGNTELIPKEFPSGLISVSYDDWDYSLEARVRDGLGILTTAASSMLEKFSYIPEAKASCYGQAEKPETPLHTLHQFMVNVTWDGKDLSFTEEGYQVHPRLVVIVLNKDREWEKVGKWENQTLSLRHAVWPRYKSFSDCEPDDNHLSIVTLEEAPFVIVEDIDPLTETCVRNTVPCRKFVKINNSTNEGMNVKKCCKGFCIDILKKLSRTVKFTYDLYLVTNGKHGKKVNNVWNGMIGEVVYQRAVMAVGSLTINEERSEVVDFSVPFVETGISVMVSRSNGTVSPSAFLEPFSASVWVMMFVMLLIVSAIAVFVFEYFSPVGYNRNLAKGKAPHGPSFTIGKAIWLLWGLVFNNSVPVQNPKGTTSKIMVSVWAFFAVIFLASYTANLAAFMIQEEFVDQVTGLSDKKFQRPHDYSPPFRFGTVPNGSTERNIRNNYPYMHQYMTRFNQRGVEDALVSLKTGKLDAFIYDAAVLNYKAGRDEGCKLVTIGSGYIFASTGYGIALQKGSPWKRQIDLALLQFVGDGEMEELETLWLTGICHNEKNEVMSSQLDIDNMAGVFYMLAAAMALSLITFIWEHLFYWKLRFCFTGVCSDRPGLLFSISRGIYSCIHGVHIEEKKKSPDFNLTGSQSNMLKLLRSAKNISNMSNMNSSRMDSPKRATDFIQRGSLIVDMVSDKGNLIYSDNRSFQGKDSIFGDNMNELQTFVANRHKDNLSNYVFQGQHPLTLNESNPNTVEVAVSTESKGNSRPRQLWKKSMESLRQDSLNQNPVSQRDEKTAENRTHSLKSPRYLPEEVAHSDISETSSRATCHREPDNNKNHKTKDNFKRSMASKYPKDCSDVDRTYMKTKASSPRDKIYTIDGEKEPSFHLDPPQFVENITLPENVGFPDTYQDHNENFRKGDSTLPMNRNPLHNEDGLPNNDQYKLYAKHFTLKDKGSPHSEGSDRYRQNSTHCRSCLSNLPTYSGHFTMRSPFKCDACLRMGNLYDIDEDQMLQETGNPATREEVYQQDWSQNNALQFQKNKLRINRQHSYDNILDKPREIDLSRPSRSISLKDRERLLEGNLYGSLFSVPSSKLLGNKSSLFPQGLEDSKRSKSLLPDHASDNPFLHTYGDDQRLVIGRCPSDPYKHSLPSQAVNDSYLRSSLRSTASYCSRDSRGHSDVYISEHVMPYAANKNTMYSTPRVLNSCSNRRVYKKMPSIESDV"},
  "source": "paper PMC6249113",
  "about": "(ACS chemical neuroscience, 2018)",
  "key": {"NMDARs": {"tested_on": "NMDARs", "conditions": "cited from earlier work"}, "GluN1/2A receptors": {"target": "GluN1/2A receptors (Rattus norvegicus, UniProt P35439+Q00959)", "type": "cell-based", "conditions": "roughly twice the IC50 of each drug (3 μM 5, 5 μM 7, 2 μM 8, 1 μM 11); 9 voltages −105 to +55 mV; fit of Equation 3"}},
  "data": [
    {"smiles": "CC12CC3CC(C)(C1)CC(N)(C3)C2", "note": "[Compound 5, memantine, reference compound]", "values": [
      {"measurement": "potency at NMDARs relative to amantadine", "setting": "NMDARs", "result": "roughly fifty-fold more potent than amantadine"},
      {"measurement": "V0, change in voltage that results in an e-fold change in the IC50", "setting": "GluN1/2A receptors", "result": "28.0 ± 2.2", "unit": "mV"}
    ]}
  ]
}
